Protein sequences, listed by entry. Tags and fused reporters are not part of them.
UniProt Q00987, whole entry, looked up: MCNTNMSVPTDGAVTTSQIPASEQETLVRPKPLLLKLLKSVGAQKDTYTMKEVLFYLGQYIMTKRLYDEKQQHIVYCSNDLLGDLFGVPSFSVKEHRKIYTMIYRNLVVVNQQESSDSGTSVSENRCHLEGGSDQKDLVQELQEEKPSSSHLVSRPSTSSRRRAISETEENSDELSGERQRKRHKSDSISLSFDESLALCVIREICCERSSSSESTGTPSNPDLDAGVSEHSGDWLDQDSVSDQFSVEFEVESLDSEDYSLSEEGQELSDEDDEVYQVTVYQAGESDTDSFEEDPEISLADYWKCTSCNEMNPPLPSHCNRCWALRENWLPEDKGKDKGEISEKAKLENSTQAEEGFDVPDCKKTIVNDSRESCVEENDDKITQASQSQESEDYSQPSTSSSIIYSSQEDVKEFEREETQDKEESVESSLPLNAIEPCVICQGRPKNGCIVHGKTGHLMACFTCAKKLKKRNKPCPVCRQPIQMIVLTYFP
UniProt P40337, whole entry, looked up: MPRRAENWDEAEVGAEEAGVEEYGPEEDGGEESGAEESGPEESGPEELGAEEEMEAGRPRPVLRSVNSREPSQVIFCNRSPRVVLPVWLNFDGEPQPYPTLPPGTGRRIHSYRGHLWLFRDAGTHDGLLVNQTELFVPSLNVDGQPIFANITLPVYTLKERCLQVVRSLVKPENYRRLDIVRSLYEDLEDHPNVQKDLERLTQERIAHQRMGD

In ChEMBL document CHEMBL5260839 (J Med Chem, 2019):

What was measured:
Type in all cases: cell-based
[1] = target: T1, von Hippel-Lindau disease tumor suppressor/E3 ubiquitin-protein ligase Mdm2 (Homo sapiens) (UniProt Q00987+P40337); test: PROTAC activity at VHL/MDM2 in human RS4-11 cells harbouring wildtype p53 assessed as fold change in MDM2 level at 0.1 uM incubated for 2 hrs by Western blot analysis
[2] = target: T1, von Hippel-Lindau disease tumor suppressor/E3 ubiquitin-protein ligase Mdm2 (Homo sapiens); test: PROTAC activity at VHL/MDM2 in human RS4-11 cells harbouring wildtype p53 assessed as fold change in MDM2 level at 0.3 uM incubated for 2 hrs by Western blot analysis
[3] = target: T1, von Hippel-Lindau disease tumor suppressor/E3 ubiquitin-protein ligase Mdm2 (Homo sapiens); test: PROTAC activity at VHL/MDM2 in human RS4-11 cells harbouring wildtype p53 assessed as fold change in MDM2 level at 1 uM incubated for 2 hrs by Western blot analysis
[4] = target: T1, von Hippel-Lindau disease tumor suppressor/E3 ubiquitin-protein ligase Mdm2 (Homo sapiens); test: PROTAC activity at VHL/MDM2 in human RS4-11 cells harbouring wildtype p53 assessed as fold change in MDM2 level at 3 uM incubated for 2 hrs by Western blot analysis
[5] = target: T1, von Hippel-Lindau disease tumor suppressor/E3 ubiquitin-protein ligase Mdm2 (Homo sapiens); test: PROTAC activity at VHL/MDM2 in human RS4-11 cells harbouring wildtype p53 assessed as fold change in MDM2 level at 10 uM incubated for 2 hrs by Western blot analysis
[6] = target: T1, von Hippel-Lindau disease tumor suppressor/E3 ubiquitin-protein ligase Mdm2 (Homo sapiens); test: PROTAC activity at VHL/MDM2 in human RS4-11 cells harbouring wildtype p53 assessed as fold change in p53 accumulation level at 0.1 uM incubated for 2 hrs by Western blot analysis
[7] = target: T1, von Hippel-Lindau disease tumor suppressor/E3 ubiquitin-protein ligase Mdm2 (Homo sapiens); test: PROTAC activity at VHL/MDM2 in human RS4-11 cells harbouring wildtype p53 assessed as fold change in p53 accumulation level at 0.3 uM incubated for 2 hrs by Western blot analysis
[8] = target: T1, von Hippel-Lindau disease tumor suppressor/E3 ubiquitin-protein ligase Mdm2 (Homo sapiens); test: PROTAC activity at VHL/MDM2 in human RS4-11 cells harbouring wildtype p53 assessed as fold change in p53 accumulation level at 1 uM incubated for 2 hrs by Western blot analysis
[9] = target: T1, von Hippel-Lindau disease tumor suppressor/E3 ubiquitin-protein ligase Mdm2 (Homo sapiens); test: PROTAC activity at VHL/MDM2 in human RS4-11 cells harbouring wildtype p53 assessed as fold change in p53 accumulation level at 3 uM incubated for 2 hrs by Western blot analysis
[10] = target: T1, von Hippel-Lindau disease tumor suppressor/E3 ubiquitin-protein ligase Mdm2 (Homo sapiens); test: PROTAC activity at VHL/MDM2 in human RS4-11 cells harbouring wildtype p53 assessed as fold change in p53 accumulation level at 10 uM incubated for 2 hrs by Western blot analysis
[11] = target: T2, E3 ubiquitin-protein ligase Mdm2 (Homo sapiens, UniProt Q00987); test: Inhibition of MDM2 in human RS4-11 cells harbouring wildtype p53 assessed as fold increase in p21 level at 0.3 uM incubated for 2 hrs by Western blot analysis
[12] = target: T1, von Hippel-Lindau disease tumor suppressor/E3 ubiquitin-protein ligase Mdm2 (Homo sapiens); test: PROTAC activity at VHL/MDM2 in human RS4-11 cells harbouring wildtype p53 assessed as fold change in p21 level at 0.1 uM incubated for 2 hrs by Western blot analysis
[13] = target: T1, von Hippel-Lindau disease tumor suppressor/E3 ubiquitin-protein ligase Mdm2 (Homo sapiens); test: PROTAC activity at VHL/MDM2 in human RS4-11 cells harbouring wildtype p53 assessed as fold change in p21 level at 0.3 uM incubated for 2 hrs by Western blot analysis
[14] = target: T1, von Hippel-Lindau disease tumor suppressor/E3 ubiquitin-protein ligase Mdm2 (Homo sapiens); test: PROTAC activity at VHL/MDM2 in human RS4-11 cells harbouring wildtype p53 assessed as fold change in p21 level at 1 uM incubated for 2 hrs by Western blot analysis
[15] = target: T1, von Hippel-Lindau disease tumor suppressor/E3 ubiquitin-protein ligase Mdm2 (Homo sapiens); test: PROTAC activity at VHL/MDM2 in human RS4-11 cells harbouring wildtype p53 assessed as fold change in p21 level at 3 uM incubated for 2 hrs by Western blot analysis
[16] = target: T1, von Hippel-Lindau disease tumor suppressor/E3 ubiquitin-protein ligase Mdm2 (Homo sapiens); test: PROTAC activity at VHL/MDM2 in human RS4-11 cells harbouring wildtype p53 assessed as fold change in p21 level at 10 uM incubated for 2 hrs by Western blot analysis
[17] = target: T2, E3 ubiquitin-protein ligase Mdm2; test: Inhibition of MDM2 in human RS4-11 cells harbouring wildtype p53 assessed as fold increase in cleaved PARP level at 0.1 uM incubated for 2 hrs by Western blot analysis
[18] = target: T2, E3 ubiquitin-protein ligase Mdm2; test: Inhibition of MDM2 in human RS4-11 cells harbouring wildtype p53 assessed as fold increase in cleaved PARP level at 0.3 uM incubated for 2 hrs by Western blot analysis
[19] = target: T1, von Hippel-Lindau disease tumor suppressor/E3 ubiquitin-protein ligase Mdm2 (Homo sapiens); test: PROTAC activity at VHL/MDM2 in human RS4-11 cells harbouring wildtype p53 assessed as fold change in cleaved PARP level at 0.1 uM incubated for 2 hrs by Western blot analysis
[20] = target: T1, von Hippel-Lindau disease tumor suppressor/E3 ubiquitin-protein ligase Mdm2 (Homo sapiens); test: PROTAC activity at VHL/MDM2 in human RS4-11 cells harbouring wildtype p53 assessed as fold change in cleaved PARP level at 0.3 uM incubated for 2 hrs by Western blot analysis
[21] = target: T1, von Hippel-Lindau disease tumor suppressor/E3 ubiquitin-protein ligase Mdm2 (Homo sapiens); test: PROTAC activity at VHL/MDM2 in human RS4-11 cells harbouring wildtype p53 assessed as fold change in cleaved PARP level at 1 uM incubated for 2 hrs by Western blot analysis
[22] = target: T1, von Hippel-Lindau disease tumor suppressor/E3 ubiquitin-protein ligase Mdm2 (Homo sapiens); test: PROTAC activity at VHL/MDM2 in human RS4-11 cells harbouring wildtype p53 assessed as fold change in cleaved PARP level at 3 uM incubated for 2 hrs by Western blot analysis
[23] = target: T1, von Hippel-Lindau disease tumor suppressor/E3 ubiquitin-protein ligase Mdm2 (Homo sapiens); test: PROTAC activity at VHL/MDM2 in human RS4-11 cells harbouring wildtype p53 assessed as fold change in cleaved PARP level at 10 uM incubated for 2 hrs by Western blot analysis

With `Cc1ncsc1-c1ccc([C@H](C)NC(=O)[C@@H]2C[C@@H](O)CN2C(=O)[C@@H](NC(=O)CCCOCCOCCOCCNC(=O)c2ccc(NC(=O)[C@@H]3NC4(CCCCC4)[C@@]4(C(=O)Nc5cc(Cl)ccc54)[C@H]3c3cccc(Cl)c3F)cc2)C(C)(C)C)cc1` the fold change (FC) [1] was 1.5, the fold change (FC) [2] was 1.3 and the fold change (FC) [3] was 1.6. For the same compound, the fold change (FC) [4] was 1.7, the fold change (FC) [5] was 2.2 and the fold change (FC) [6] was 3.1. It also gave a fold change (FC) [7] of 3.9, a fold change (FC) [8] of 6.1 and a fold change (FC) [9] of 8.3. The fold change (FC) [10] was 9.9, the fold change (FC) [11] was 3.8 and the fold change (FC) [12] was 1.8. It also gave a fold change (FC) [13] of 1.8, a fold change (FC) [14] of 2.2 and a fold change (FC) [15] of 3.2. It also gave a fold change (FC) [16] of 4.5, a fold change (FC) [17] of 7.3 and a fold change (FC) [18] of 47.8. It also gave a fold change (FC) [19] of 2.9, a fold change (FC) [20] of 6.5 and a fold change (FC) [21] of 40.1. The fold change (FC) [22] was 60.5 and the fold change (FC) [23] was 92.3.
